Laboratory results: patent publication US11911434B2, “Stable antibody-drug conjugate, preparation method therefor, and use thereof” (GENEQUANTUM HEALTHCARE (SUZHOU) CO., LTD., priority 2014, dated 2024)
Entries after “also recorded” stand apart in the source; their conditions may differ.

Key:
[1] = Single injection acute toxicity study in rats; type: in vivo, SD rats
Method: The acute toxicity of the candidate ADC was evaluated in rats. Female Sprague-Dawley rats were injected with high doses (60 mg/kg or more) of ADCs, and impact of drugs on the animals was then observed and analyzed, and index such as body weight, clinical signs, hematology, clinical biochemistry and histopathology were studied to evaluate the toxicity of the candidate ADC.
The drug was administered by a single injection via tail vein. The administration dose is 10 ml/kg, and the administration rate is about 1 ml/min. During the experiment, the animals were subjected to clinical inspection, and were examined for body weight, food intake, blood count, blood biochemical indices. At the end of the experiment, all animals were euthanized, anatomized and checked systematically. All major organs were weighed, organ coefficient was calculated and any visible lesions were recorded.

[2] = In vivo pharmacokinetic study in rats, serum total ADC by ELISA; conditions: for blood concentration as % of that detected 1 h after administration: female SD rats, 10 mg/kg i.v.

For ado-trastuzumab emtansine [Kadcyla], the “ALT, AST, TBIL, GGT” value ([1]; 60 mg/kg) was “increased or had a tendency to increase”, the “erythroid index (RBC, HGB, HCT, Retic)” value ([1]; 60 mg/kg) was “reduced” and the “white blood cell and its subgroup count” value ([1]; 60 mg/kg) was “increased”. For the same substance, the “visible nasal secretions (animals affected)” value ([1]; 60 mg/kg, 5 days after administration (D5), n=6) was 2/6, the “arched (animals affected)” value ([1]; 60 mg/kg, D5, n=6) was 1/6 and the “ears and limbs pale (animals affected)” value ([1]; 60 mg/kg, D5, n=6) was 1/6. For the same substance, the “ears flushing (ear portions) and swelling (animals affected)” value ([1]; 60 mg/kg, D5, n=6) was 6/6, the “fluffy coat (animals affected)” value ([1]; 60 mg/kg, D5, n=6) was 6/6 and the “weight loss (animals affected)” value ([1]; 60 mg/kg, D5, n=6) was 1/6. The “blunt liver edge round (animals affected)” value ([1]; 60 mg/kg, necropsy, n=6) was 4/6, the “spleen large (animals affected)” value ([1]; 60 mg/kg, necropsy, n=6) was 6/6 and the “thymus change (animals affected)” value ([1]; 60 mg/kg, necropsy, n=6) was 1/6. For the same substance, the “ALT and AST level compared with vehicle control” value ([1]; single tail vein injection, GQ1001 6 and 60 mg/kg, Kadcyla 60 mg/kg) was “significantly increased; also recorded: increased significantly”, the “body weight change compared with vehicle control” value ([1]; single tail vein injection, GQ1001 6 and 60 mg/kg, Kadcyla 60 mg/kg (D2-D12)) was “significantly lower; also recorded: significant weight loss” and the “attenuation rate / serum concentration change, GQ1001 compared with Kadcyla” value ([2]; SD rats, single tail vein injection, 1 h to 28 days) was “no significant difference”. For the same substance, the “blood concentration as % of that detected 1 h after administration” value (from here on “blood concentration as %”) ([2]; 6 days after administration) was 20.5%, the “blood concentration as %” value ([2]; 13 days after administration) was 12.2% and the “blood concentration as %” value ([2]; 21 days after administration) was 7.7%. The “blood concentration as %” value ([2]; 28 days after administration) was 5.2% and the “blood concentration as %” value ([2]; one day after administration) was 42.5%.
